Test results: US20250042896A1, “POLYCYCLIC COMPOUND AS CBL-B INHIBITOR” (HAINAN SIMCERE ZAIMING PHARMACEUTICAL CO., LTD., priority 2021, published 2025)

By UniProt entry, the sequences of proteins in these tests, tags left out.
UniProt Q13191, whole entry: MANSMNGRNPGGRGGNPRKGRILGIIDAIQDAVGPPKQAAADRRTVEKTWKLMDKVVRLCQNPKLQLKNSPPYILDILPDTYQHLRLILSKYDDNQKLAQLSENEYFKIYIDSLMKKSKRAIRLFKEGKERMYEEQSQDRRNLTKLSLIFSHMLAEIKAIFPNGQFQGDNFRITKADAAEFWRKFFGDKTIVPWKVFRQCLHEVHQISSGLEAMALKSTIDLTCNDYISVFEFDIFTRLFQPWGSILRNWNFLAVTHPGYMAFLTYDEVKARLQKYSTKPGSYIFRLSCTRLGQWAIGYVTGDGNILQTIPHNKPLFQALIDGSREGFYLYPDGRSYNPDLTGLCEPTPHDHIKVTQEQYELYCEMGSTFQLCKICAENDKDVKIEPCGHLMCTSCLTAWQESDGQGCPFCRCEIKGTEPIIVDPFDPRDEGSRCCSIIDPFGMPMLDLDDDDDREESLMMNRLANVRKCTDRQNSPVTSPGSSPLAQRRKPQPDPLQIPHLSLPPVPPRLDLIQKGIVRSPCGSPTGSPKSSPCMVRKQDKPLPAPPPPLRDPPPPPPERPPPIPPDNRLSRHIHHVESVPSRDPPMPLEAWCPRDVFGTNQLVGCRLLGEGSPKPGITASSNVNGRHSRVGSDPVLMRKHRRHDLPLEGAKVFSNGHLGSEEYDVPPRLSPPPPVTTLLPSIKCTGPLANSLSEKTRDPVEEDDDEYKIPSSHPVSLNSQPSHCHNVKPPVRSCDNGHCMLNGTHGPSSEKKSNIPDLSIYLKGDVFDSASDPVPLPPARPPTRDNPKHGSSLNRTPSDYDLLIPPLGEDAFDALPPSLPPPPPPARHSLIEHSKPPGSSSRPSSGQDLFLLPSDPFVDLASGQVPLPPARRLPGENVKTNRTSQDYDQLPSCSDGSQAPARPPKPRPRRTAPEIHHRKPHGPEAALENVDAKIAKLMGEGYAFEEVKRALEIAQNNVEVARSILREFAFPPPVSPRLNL

What was measured:
[1] = system: Jurkat T cells; assay: Jurkat T activation assay (IL-2 release, ELISA); conditions: IL-2 release of Jurkat T cells, Anti-Human CD3/CD28 stimulation, 48 hours, IL-2 ELISA
Experimental: Experiment purpose: Testing of effect of compounds on IL-2 release and activation of Jurkat T cells
Experimental method: 96-well cell plates (Corning) were coated with 2 μg/mL Anti-Human CD3 Clone OKT3 (BD) at 37° C. for 4 hours. 3-fold serial dilutions of compounds (final concentration 10 μM-4.6 nM, starting concentration 10 μM, 3-fold dilution, 8 points, 8th point being 4.6 nM) and 220 μL of 1.11×10^6/mL Jurkat T cells (ATCC) were incubated for 1 hour, 5 μL of 45 μg/mL Anti-Human CD28 Clone CD28.2 (BD) was added, mixed evenly, 100 μL was transferred to the aforementioned CD3-coated cell plate, cultured in a cell incubator at 37° C. for 48 hours, and the supernatant was collected and the IL-2 release was detected using an IL-2 ELISA kit (BD). EC50 was analyzed using Prism.

[2] = biological target: Cbl-b protein and UbcH5B-Ub (Homo sapiens (Human), UniProt Q13191); assay: Cbl-b activity assay (HTRF, interaction between Cbl-b protein and UbcH5B-Ub); conditions: inhibition of interaction between Biotin-Cbl-b protein and Eu-Ubquitin-UbcH5B, HTRF signal 665 nm/615 nm
Experimental: Experiment purpose: Testing of inhibitory activity of compounds on the interaction between Cbl-b protein and UbcH5B-Ub
Experimental method: Eu-Ubquitin-UbcH5B was prepared by incubating Eu-Ubquitin (Cisbio) with UbcH5B (ENZO), E1 (ENZO) at 37° C. for 4 hours. Eu-Ubquitin-UbcH5B was aliquoted and stored at −80° C. Cbl-b activity assay was performed in 384-well plates (Perkin Elmer). 100 nL of 3-fold serial dilutions of compounds (final concentration 10 μM-0.5 nM, starting concentration 10 μM, 3-fold dilution, 10 points, 10th point being 0.5 nM) and 5 μL of 50 nM Biotin-Cbl-b protein (Sigma) were incubated for 1 hour at room temperature, and the reaction buffer was 50 mM HEPES pH 7.0 (Gibco), 100 mM NaCl (Sigma), 0.01% Triton X-100 (Sigma), 0.01% BSA (Sigma) and 1 mM DTT (Invitrogen). 5 μL of Src mixed solution (40 nM Src (R&D), 2 mM ATP (Sigma), 10 mM MgCl2 (Sigma)) was added to the reaction plate and incubated at room temperature for 3 hours. 10 μL of detection solution (12.5 nM Strepdividin-XL665 (Cisbio), 500 nM Eu-Ubquitin-UbcH5B, […] (Invitrogen), 0.004% BSA (Sigma)) was added to the reaction plate, incubated overnight at room temperature, and the HTRF signal (665 nm/615 nm) was read on Envision (Perkin Elmer). IC50 was calculated using IDBS XLfit.

EC50 [1]: 401 nM
IC50 [2]: 30.5 nM
SMILES: CC1CC(c2cccc(-c3cnc4c(C(F)(F)F)cc(CN5CCC[C@H](C)C5)cn4c3=O)c2)(c2nncn2C)C1 (single isomer, unassigned)
